{"source": "patent US6992070B2", "about": "(priority 2000, dated 2006)", "test_system": "ex vivo perfused rabbit heart (ventricular myocytes), Adgal adenovirus gene transfer"}
{"substance": "Substance P", "values": [{"measurement": "speed of increase in microvascular permeability", "setting": "compared with bradykinin or serotonin", "result": "faster than either bradykinin or serotonin"}, {"measurement": "pretreatment (exposure) time required for the enhancement of infection", "setting": "ex vivo perfused heart, pretreatment before Adgal", "result": 2, "unit": "min"}]}
